pIC50: −log10 of the molar value.
Molecular target: Phosphatidylinositol 4,5-bisphosphate 3-kinase catalytic subunit alpha isoform (Mus musculus, UniProt P42337)
Test: Cell Based Assay: This assay was used to measure PI3K-alpha inhibition in cells. BT474 cells (human breast ductal carcinoma, ATCC HTB-20) were seeded into black 384 well plates (Costar, #3712) at a density of 5600 cells/well in DMEM containing 10% FBS and 1% glutamine and allowed to adhere overnight.The following morning compounds in 100% DMSO were added to assay plates by acoustic dispensing. After a 2 hour incubation at 37 C. and 5% CO2, the medium was aspirated and the cells were lysed with a buffer containing 25 mM Tris, 3 mM EDTA, 3 mM EGTA, 50 mM sodium fluoride, 2 mM Sodium orthovanadate, 0.27M sucrose, 10 mM beta-glycerophosphate, 5 mM sodium pyrophosphate, 0.5% Triton X-100 and complete protease inhibitor cocktail tablets (Roche #04 693 116 001, used 1 tab per 50 ml lysis buffer).After 20 minutes, the cell lysates were transferred into ELISA plates (Greiner #781077) which had been pre-coated with an anti total-AKT antibody in PBS buffer.
Parameters: species or system BT-474

Amino acid sequences for entries named in this document (tags omitted).
UniProt P42337, whole entry: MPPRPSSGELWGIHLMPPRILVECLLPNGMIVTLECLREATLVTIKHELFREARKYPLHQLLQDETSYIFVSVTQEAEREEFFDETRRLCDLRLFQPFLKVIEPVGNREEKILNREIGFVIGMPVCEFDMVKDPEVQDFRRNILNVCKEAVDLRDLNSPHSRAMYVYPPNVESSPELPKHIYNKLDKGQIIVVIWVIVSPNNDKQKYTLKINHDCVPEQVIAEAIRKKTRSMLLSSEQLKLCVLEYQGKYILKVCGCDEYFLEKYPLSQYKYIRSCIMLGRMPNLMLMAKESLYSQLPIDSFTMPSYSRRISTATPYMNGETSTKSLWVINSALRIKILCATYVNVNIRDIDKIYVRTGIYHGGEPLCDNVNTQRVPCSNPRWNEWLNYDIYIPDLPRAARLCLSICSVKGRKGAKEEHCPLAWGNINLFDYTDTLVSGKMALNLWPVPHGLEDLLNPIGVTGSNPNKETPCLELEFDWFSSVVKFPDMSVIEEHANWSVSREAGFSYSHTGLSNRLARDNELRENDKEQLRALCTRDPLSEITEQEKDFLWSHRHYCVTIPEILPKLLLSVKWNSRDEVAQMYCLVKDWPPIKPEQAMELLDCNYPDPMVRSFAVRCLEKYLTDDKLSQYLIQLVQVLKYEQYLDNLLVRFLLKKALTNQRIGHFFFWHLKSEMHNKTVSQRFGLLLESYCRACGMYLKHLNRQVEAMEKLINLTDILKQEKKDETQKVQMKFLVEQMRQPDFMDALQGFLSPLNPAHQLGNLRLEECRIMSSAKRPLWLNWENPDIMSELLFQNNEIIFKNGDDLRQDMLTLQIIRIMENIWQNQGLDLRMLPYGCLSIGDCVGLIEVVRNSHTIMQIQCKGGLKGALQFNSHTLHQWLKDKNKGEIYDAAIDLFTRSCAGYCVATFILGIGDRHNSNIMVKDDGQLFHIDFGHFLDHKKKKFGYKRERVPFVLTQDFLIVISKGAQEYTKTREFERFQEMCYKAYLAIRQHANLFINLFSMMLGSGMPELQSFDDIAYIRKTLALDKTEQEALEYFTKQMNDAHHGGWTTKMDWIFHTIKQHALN

pIC50: 6.51
SMILES: C[C@@H](O)CC(=O)N1CCC(c2nc(-c3cnc(N)c(-c4nnc(C(C)(C)C)o4)n3)n(C)n2)CC1 (stereo in doubt)
